Measurements taken from ChEMBL document CHEMBL1134693, “Synthesis and comparative molecular field analysis (CoMFA) of symmetric and nonsymmetric cyclic sulfamide HIV-1 protease inhibitors” (J Med Chem, 2001).

Legend:
[1] = target: T1, Human immunodeficiency virus type 1 protease (Human immunodeficiency virus 1, UniProt Q72874); assay: Inhibition of recombinant HIV-1 protease measured by fluorometric assay
[2] = target: T1, Human immunodeficiency virus type 1 protease; assay: Inhibition of HIV-1 protease by fluorometric assay

Compound `CNC(=O)c1cccc(CN2[C@@H](COc3ccccc3)[C@@H](O)[C@H](O)[C@H](COc3ccccc3)N(Cc3ccccc3)S2(=O)=O)c1` has a Ki [1] of 11 nM and a Ki [2] of 11 nM.
